Measured values: US11739297B2, “Method of increasing tumor killing activity of macrophages or monocytes comprising chimeric antigen receptor” (Carisma Therapeutics Inc., priority 2020, dated 2023)
“Also recorded” adds a separate entry of the source.

Columns and labels:
[1] = test system: HER2+ breast cancer cells (CRL2351); experiment: Cancer cell killing by cytokine treated HER2 CAR macrophages (Incucyte); type: cell-based, human
Experimental: (§1) Human macrophages were electroporated with HER2 CAR mRNA comprising m6AGCap1 and PsU modifications. Cells were cultured with cytokines that induce an M1 phenotype such as IFN-alpha, IFN-beta, IFN-gamma, IFN-gamma plus lipopolysaccharide (LPS), TNF-alpha, IL-6 or a STING ligand (STING-L) for up to 48 hours and then cytokines were washed off and fresh media was added. CAR expression and M1 marker expression were measured on days 2 and 7 after transfection. Fluorescent labeled HER2+ breast cancer cells (CRL2351) were co-cultured with HER2 CAR macrophages two days after the macrophages were transfected. Cancer cell growth was monitored via its fluorescence on an Incucyte® live imaging microscope every four hours. The Effector (CAR macrophage) to Target (cancer cell) ratio was 5:1.
(§2) Five different mRNA modifications were also tested to determine if interferon treatment differentially affected macrophages transfected with mRNA comprising different modifications. Human macrophages were electroporated with HER2 CAR mRNA comprising different mRNA modifications. CAR expression and M1 markers were detected by Flow Cytometry (Attune) on day four after electroporation. Day 4 CAR macrophage cells were then co-cultured with a Nuc-Light labeled, HER2+ breast cancer cell line (CRL2351) at an Effector (CAR macrophage) to Target (cancer cell) ratio of 5:1. Cancer cell growth was monitored via its fluorescence on an Incucyte® live imaging microscope every four hours.
To evaluate the anti-tumor function of macrophages transfected with mRNA encoding a HER2 CAR with or without priming with IFN-β, untransduced (UTD) or CAR macrophages were primed with 0, 3, 10, 30, or 100 ng/mL IFN-β for 4 hours or 20 hours. These effector cells were then co-cultured with the HER2+ breast cancer cell line CRL2351-GFP at an effector to target ratio of 3:1 or 1.5:1 and anti-tumor activity was measured based on GFP expression using an Incucyte® live imaging microscope. […] To evaluate whether the improved mRNA-transfected CAR macrophage anti-tumor effect was universal to all interferons or only interferon beta, macrophages electroporated with M6AGCap1/PsU mRNA were treated with IFN-alpha, beta, or gamma and evaluated for their cancer cell killing ability.
Additional studies were performed to determine if treatment with interferons could further improve CAR mRNA persistence in macrophages and if CAR macrophage functionality could be extended. […] CAR expression was detected by Flow Cytometry (Attune) on day 2 after transfection. […] Cancer cell growth was monitored via its fluorescence on an Incucyte® live imaging microscope. CAR expression and M1 markers in macrophages were detected by Flow Cytometry (Attune) on day 7 after transfection.

human macrophages = experiment: Viability, CAR expression and M1/M2 markers of HER2 CAR mRNA electroporated macrophages cultured with cytokines; type: cell-based
Experimental: as §1, §2
To further evaluate the impact of IFN-β on CAR persistence, human macrophages electroporated with m6AGCap1/PsU mRNA encoding a HER2 CAR were evaluated on day 2 and day 7.
In order to validate the effect of IFN-β treatment on improved CAR expression, and to optimize the IFN-β concentration, macrophages transfected with M6AGCap1/PsU modified mRNA were treated with 0, 3, 10, 30, or 100 ng/mL IFN-β for 4 hours and the viability, CAR percentage, and CAR MFI were evaluated on day 4 and day 7 post electroporation.
Given that macrophage phenotype is considered plastic, and immunosuppressive cytokines such as IL-10 are known to induce an M2 phenotype, the impact of IL-10 treatment on IFN-β treated or untreated HER2 CAR mRNA transfected macrophages was evaluated.
Additional studies were performed to determine if treatment with interferons could further improve CAR mRNA persistence in macrophages and if CAR macrophage functionality could be extended. Human macrophages were electroporated with 300 nM CAR mRNA comprising m6AGCap1 and PsU modifications. Cells were cultured with 20 ng/mL IFNs for 24 hours and then the cells were washed to remove cytokines. CAR expression was detected by Flow Cytometry (Attune) on day 2 after transfection. Cells were then co-cultured with a Nuc-Light labeled, HER2+ breast cancer cell line (CRL2351) at the Effector to Target ratio of 3:1. Cancer cell growth was monitored via its fluorescence on an Incucyte® live imaging microscope. CAR expression and M1 markers in macrophages were detected by Flow Cytometry (Attune) on day 7 after transfection.

[2] = test system: HER2+ breast cancer cells (CRL2351); experiment: Cytokine secretion of interferon treated HER2 CAR macrophages in co-culture (MSD); type: cell-based, human; conditions: 150 nM CAR mRNA, E:T 3:1, 48 hours co-culture
Experimental: To evaluate whether interferon treatment of macrophages improved other anti-tumor functions, the cytokine secretion of interferon treated or untreated mRNA transfected HER2 CAR macrophages after co-culture with HER2+ breast cancer cells was evaluated. Human macrophages were electroporated with 150 nM HER2 CAR mRNA comprising m6AGCap1 and PsU modifications. HER2+ breast cancer cells (CRL2351) were co-cultured with CAR macrophages after the macrophages were transfected with the CAR mRNA at an Effector (CAR macrophage) to Target (cancer cell) ratio of 3:1. Supernatant was collected 48 hours after the cancer cells and macrophages were co-cultured and cytokine levels were measured using a Meso Scale Discovery (MSD) instrument.

[3] = 48 hours and 7 days post-treatment with IL-10
[4] = mRNA transfected CAR macrophages

B1: IFN-β: interferon cytokine that induces an M1 phenotype (protein, UniProt P01574 22-187, looked up)
Interferon beta: MSYNLLGFLQRSSNFQCQKLLWQLNGRLEYCLKDRMNFDIPEEIKQLQQFQKEDAALTIYEMLQNIFAIFRQDSSSTGWNETIVENLLANVYHQINHLKTVLEEKLEKEDFTRGKLMSSLHLKRYYGRILHYLKAKEYSHCAWTIVRVEILRNFYFINRLTGYLRN
cancer cell killing by primed CAR macrophages ([1]; 0-100 ng/mL for 4 or 20 hours, E:T 3:1 or 1.5:1): improved ability for CAR macrophages to kill cancer cells
cancer cell killing, comparison of interferons ([1]; M6AGCap1/PsU mRNA): best cancer cell killing, with a greater effect than IFN-α or IFN-γ
cancer cell killing ([1]; assay 7 days post-electroporation, 72 hours co-culture): highest level of cancer killing
anti-tumor activity of CAR macrophages electroporated with modified mRNAs ([1]; with or without treatment): improved anti-tumor activity for all CAR macrophages except those transfected with 5moU mRNA
persistence of M1 phenotype post treatment (human macrophages): at least 7 days
CAR expression (CAR percentage, CAR MFI) (human macrophages; 0, 3, 10, 30, or 100 ng/mL for 4 hours, day 4 and day 7): dose-dependent effect
induction of M1 markers CD80, CD86, and HLA-DR (human macrophages; 0-100 ng/mL): dose-dependent
M1 marker CD86 after IL-10 (human macrophages; [3]): retaining expression of the M1 marker CD86
resistance to IL-10 / M2 inducing factors (M2 marker CD163) (human macrophages; [3]): did not express the M2 marker CD163; also recorded: resisted other M2 inducing factors as well
CAR expression (human macrophages; Day 7): higher CAR expression than macrophages treated with control media, IFN-α, or IFN-γ
CAR expression (human macrophages; day 2): higher CAR expression than macrophages treated with control media, IFN-α or IFN-γ
HER2 CAR expression (human macrophages; day 7, 20 ng/mL IFNs for 24 hours): expressed the highest level of CAR by a significant margin
CAR expression rate (human macrophages; day 7, m6AGCap1/PsU mRNA, vs not treated): significantly improved CAR expression rate on day 7
expression of M1 markers CD80, CD86 and HLA-DR (human macrophages; day 7, vs no interferon): increased
M1 phenotype (based on CD86 expression) (human macrophages; [4]): induction of an M1 phenotype; also recorded: strongest M1 phenotype of the interferons evaluated
M2 markers (based on CD163 expression) (human macrophages; [4]): reduction of M2 markers
secretion of the cytokines IL-6, IL-8 and TNFα [2]: increased secretion
